The values that follow are results of earlier work, collected in US20210340516A1, “COMPOSITIONS CONTAINING ARGINASE 1 FOR THE TREATMENT OF NEUROVASCULAR AND RETINAL VASCULAR DISORDERS” (Augusta University Research Institute, Inc., priority 2020, published 2021).

The conditions of the data set: cited from earlier work.

B1: PEG-A1: recombinant human arginase (rhArg) covalently attached to methoxy polyethylene glycol (mPEG-SPA; MW 5,000) via succinamide propionic acid (SPA) linker (protein, UniProt P05089 1-322, looked up)
Arginase-1: MSAKSRTIGIIGAPFSKGQPRGGVEEGPTVLRKAGLLEKLKEQECDVKDYGDLPFADIPNDSPFQIVKNPRSVGKASEQLAGKVAEVKKNGRISLVLGGDHSLAIGSISGHARVHPDLGVIWVDAHTDINTPLTTTSGNLHGQPVSFLLKELKGKIPDVPGFSWVTPCISAKDIVYIGLRDVDPGEHYILKTLGIKYFSMTEVDRLGIGKVMEETLSYLLGRKKRPIHLSFDVDGLDPSFTPATGTPVVGGLTYREGLYITEEIYKTGLLSGLDIMEVNPSLGKTPEEVTRTVNTAVAITLACFGLAREGNHKPIDYLNPPK
modifications: mPEG-SPA 5 kDa conjugate
notes: recombinant human arginase (rhArg) covalently attached to methoxy polyethylene glycol (mPEG-SPA; MW 5,000) via succinamide propionic acid (SPA) linker
Regarding B1, the half-life in vivo is 72 h.
